Experimental data reported in patent US6462038B1, “Androgen receptor modulator compounds and methods” (Ligand Pharmaceuticals, Inc., priority 1999, dated 2002).
Read-outs that look alike come from different tables or passages of the source.

Chains of the proteins cited; added tags and fusions are not shown. Lines headed by an entry give the natural chain unless they say otherwise; changes in a name come on top.
UniProt P10275: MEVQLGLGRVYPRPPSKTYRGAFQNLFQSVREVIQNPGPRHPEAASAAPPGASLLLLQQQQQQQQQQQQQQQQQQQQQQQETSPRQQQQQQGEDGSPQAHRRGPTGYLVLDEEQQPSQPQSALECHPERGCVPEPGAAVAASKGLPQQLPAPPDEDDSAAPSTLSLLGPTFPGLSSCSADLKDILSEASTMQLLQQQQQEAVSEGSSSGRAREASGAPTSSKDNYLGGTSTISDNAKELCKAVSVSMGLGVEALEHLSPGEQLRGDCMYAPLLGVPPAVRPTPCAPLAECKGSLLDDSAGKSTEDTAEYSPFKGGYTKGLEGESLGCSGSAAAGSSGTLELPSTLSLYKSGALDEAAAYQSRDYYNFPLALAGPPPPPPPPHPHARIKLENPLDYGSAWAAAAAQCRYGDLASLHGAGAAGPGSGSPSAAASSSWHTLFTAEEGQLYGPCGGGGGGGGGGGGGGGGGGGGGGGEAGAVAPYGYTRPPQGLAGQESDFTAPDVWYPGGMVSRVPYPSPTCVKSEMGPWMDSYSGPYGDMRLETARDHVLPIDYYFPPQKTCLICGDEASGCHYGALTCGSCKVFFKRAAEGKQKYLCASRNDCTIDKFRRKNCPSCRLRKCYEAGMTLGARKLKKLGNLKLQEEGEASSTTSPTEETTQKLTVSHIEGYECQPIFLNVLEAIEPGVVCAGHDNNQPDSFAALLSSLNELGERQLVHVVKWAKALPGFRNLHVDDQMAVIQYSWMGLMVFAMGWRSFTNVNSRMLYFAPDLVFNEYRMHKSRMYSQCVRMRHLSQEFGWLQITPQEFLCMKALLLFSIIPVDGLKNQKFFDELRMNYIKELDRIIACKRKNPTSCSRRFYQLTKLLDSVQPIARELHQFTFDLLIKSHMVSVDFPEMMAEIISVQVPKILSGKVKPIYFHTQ

Assays:
hAR [1] = target: T1, hAR (Homo sapiens, UniProt P10275); assay: co-transfection assay, AR agonist, CV-1 cells; format: cell-based
hAR [2] = target: T1, hAR; assay: co-transfection assay, AR antagonist (in presence of DHT), CV-1 cells; format: cell-based
[3] = read-out: AR Agonist CV-1 Cells Potency, hAR in CV-1 cells
[4] = read-out: AR Antagonist CV-1 Cells Potency, hAR in CV-1 cells, DHT at EC50
[5] = read-out: AR Potency Agon, Table 2

Row | SMILES | EC50 (hAR [1]; [3]) [nM] | IC50 (hAR [2]; [4]) [nM] | EC50 (hAR [1]; [5]) [nM] | IC50 (hAR [2]; read-out: AR Potency Antag, Table 2) [nM]
1 | O=c1cc(C(F)(F)F)c2cc3c(cc2[nH]1)OCC(CO)N3CC(F)(F)F (racemic) [Compound 130, (±)-1,2,3,6-Tetrahydro-2-(hydroxymethyl)-1-(2,2,2-trifluoroethyl)-9-(trifluoromethyl)-7H-[1,4]oxazino[3,2-g]quinolin-7-one] | 8.9 | > 10000 | – | –
2 | CC(C)CN1CCOc2cc3[nH]c(=O)cc(C(F)(F)F)c3cc21 | 2.6 | > 10000 | – | –
3 | O=c1cc(C(F)(F)F)c2cc3c(cc2[nH]1)OCCN3CC(F)(F)F [Compound 105, 1,2,3,6-Tetrahydro-1-(2,2,2-trifluoroethyl)-9-(trifluoromethyl)-7H-[1,4]oxazino[3,2-g]quinolin-7-one] | 3.5 | – | 3.5 | –
4 | CN1CCOc2cc3[nH]c(=O)cc(C(F)(F)F)c3cc21 [Compound 101, 1,2,3,6-Tetrahydro-1-methyl-9-(trifluoromethyl)-7H-[1,4]oxazino[3,2-g]quinolin-7-one] | 18 | – | 18 | –
5 | CCC1CN(CC(F)(F)F)c2cc3c(C(F)(F)F)cc(=O)[nH]c3cc2O1 (racemic) | 11 | – | – | –
6 | CCC1CN(C)c2cc3c(C(F)(F)F)cc(=O)[nH]c3cc2O1 (racemic) | 39 | > 10000 | – | –
7 | CC1CN(C)c2cc3c(C(F)(F)F)cc(=O)[nH]c3cc2O1 (racemic) | 40 | > 10000 | – | –
8 | CCN1CCOc2cc3[nH]c(=O)cc(C(F)(F)F)c3cc21 [Compound 103, 1-Ethyl-1,2,3,6-tetrahydro-9-(trifluoromethyl)-7H-[1,4]oxazino[3,2-g]quinolin-7-one] | 6.4 | 8000 | 6.4 | 8000
9 | CCCN1CCOc2cc3[nH]c(=O)cc(C(F)(F)F)c3cc21 | 2.4 | – | – | –
10 | O=c1cc(C(F)(F)F)c2cc3c(cc2[nH]1)OCCN3 [Compound 120, 1,2,3,6-Tetrahydro-9-(trifluoromethyl)-7H-[1,4]oxazino[3,2-g]quinolin-7-one] | – | 112 | – | –
